Antibody variant affinities, Ab-14 heavy chain, assay B

Binding partner: SARS-CoV-2 spike HR2 peptide, sequence PDVDLGDISGINAS.

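This is the validation round: designs drawn from the data on random variants, tested in the same kind of assay. Their group label is 14H_GPLM_Gen (GPLM: also part of the Gaussian process libraries; Gen: genetic algorithm; a sequence that several methods proposed may carry one label only). The assay is AlphaSeq: two haploid yeast populations carry antibody and antigen on their surface. Pairs that bind mate more often; barcode pairs of the diploids are counted by sequencing. A regression on co-assayed BCL2-family reference pairs converts the normalised counts of each replicate to an apparent Kd. Each pool was mated in six replicate cultures.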

Parent scFv Ab-14: VH joined to VL by the linker GGGGSGGGGSGGGGS. Changes lie in the heavy chain CDRs alone.
VH: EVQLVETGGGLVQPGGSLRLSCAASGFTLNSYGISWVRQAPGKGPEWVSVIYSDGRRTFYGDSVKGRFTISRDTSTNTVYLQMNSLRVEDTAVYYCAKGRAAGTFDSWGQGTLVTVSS
VL: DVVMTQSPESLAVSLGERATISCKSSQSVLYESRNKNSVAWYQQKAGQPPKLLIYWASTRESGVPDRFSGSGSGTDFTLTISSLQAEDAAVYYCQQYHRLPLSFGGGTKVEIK

Variants are written as CDR1, CDR2 and CDR3 of the heavy chain (limits as in the source). Parent: GFTLNSYGIS, VIYSDGRRTFYGDSVK, GRAAGTFDS. Values are log10 of the apparent Kd in nM; lower means stronger binding. Replicates are averaged; those with no signal do not enter the mean. A pair that was not seen in that replicate is written "nd"; this usually means weak binding, but a binder can also be missed.

| CDR-H1 | CDR-H2 | CDR-H3 | log10 Kd, replicates | log10 Kd (nM), mean | empty controls |
|---|---|---|---|---|---|
| GFSLNNYGIS | VIYSDGRRTFYGDSVK | GTAAGTFDS | nd / 0.08 / -0.13 / 0.18 / 1.14 / 0.76 | 0.41 | 0 of 18 |
| GFSLNQYGIS | VIYSDGRRTFYIDSVK | GQAAGTFDS | 0.38 / 0.37 / 0.07 / 0.14 / 0.12 / 0.80 | 0.32 | 0 of 18 |
| GFSLNSYGIS | VIYSDGRRTFYSDDVK | GEAAGTFDS | 0.38 / -0.04 / 0.35 / 0.16 / -0.03 / -0.07 | 0.12 | 0 of 18 |
| GFTLNSYGIS | VIYADGRRTFYGDSVK | GKAAGTFDV | 0.02 / -0.57 / -0.28 / -0.48 / -0.63 / -0.35 | -0.38 | 0 of 18 |
| GFTLNDYGIS | VIYSDGRRTFYGDSVK | GRHAGTFDS | nd / nd / nd / 1.39 / 1.56 / 1.30 | 1.42 | 0 of 18 |
| GFSLNDYGIS | VIYSDGRRTFYGDSVK | GRAAGTFDK | 0.07 / 0.71 / 0.48 / 0.31 / 0.49 / 0.70 | 0.46 | 1 of 18 (1.11) |
| GFSLNEYGIS | VIYSDGRRTFYGDSVK | GRTAGTFDS | -0.08 / -0.06 / -0.34 / -0.22 / -0.75 / 0.24 | -0.20 | 0 of 18 |
| KFTLNSYGIS | VIYSDGKRTFYGDSVK | GRVAGTFDS | 1.80 / 2.00 / nd / 3.11 / 1.68 / 2.26 | 2.17 | 0 of 18 |
| GFTLNSYGIS | VIYSDGRRTFYADSVK | GQAAGTFDT | -0.10 / 0.16 / 0.30 / -0.09 / 0.05 / 0.26 | 0.10 | 0 of 18 |
| GFSLNSYGIS | VIYSDGRRTFYHDSVK | GNAAGTFDS | 0.30 / 0.21 / 0.15 / 0.25 / 0.23 / 0.24 | 0.23 | 0 of 18 |
| GFTLNSYGIS | VIYADGRRTFYGDSVK | GRAAGTFIS | nd / nd / nd / nd / nd / nd | nd | 0 of 18 |
| GFSLNSYGIS | VIYSDGRRTFYADSVK | GKTAGTFDW | 0.52 / 0.28 / 0.27 / 0.36 / 0.44 / 0.03 | 0.31 | 0 of 18 |
| GFELNSYGIS | VIYSDGRRTFYMDSVK | GQTAGTFDS | 0.78 / 1.41 / 0.96 / 0.50 / 2.32 / 1.14 | 1.18 | 1 of 18 (2.07) |
| HFSLNSYGIS | VIYSDGRRTFYADSVK | GNAAGTFDS | nd / 1.27 / nd / nd / nd / 2.99 | 2.13 | 1 of 18 (2.50) |
| GFTLNSYGIS | VIYSDGRRTFYADDVK | GQAAGTFDS | 0.33 / 0.42 / 0.22 / 0.24 / -0.02 / 0.73 | 0.32 | 0 of 18 |
| GFRLNEYGIS | VIYSDGRRTFYGDSVK | GRTAGTFDS | 0.28 / 0.09 / -0.15 / -0.06 / 0.06 / -0.14 | 0.01 | 0 of 18 |
| GFSLNSYGIS | VIYSDGRRTFYVDSVK | GKTAGTFDS | nd / nd / nd / nd / nd / nd | nd | 0 of 18 |
| GFTLNEYGIS | VIYSDGRRTFYGDSVK | GRSAGTFDT | 1.55 / 2.91 / nd / 0.95 / nd / 0.88 | 1.57 | 1 of 18 (1.18) |
| GFSLNEYGIS | VIYSDGRRTFYADSVK | GRAAGTFDT | -0.14 / -0.43 / -0.33 / -0.51 / -0.32 / -0.08 | -0.30 | 0 of 18 |
| GFSLNSYGIS | VIYSDGRRTFYADSVK | GNAAGTFDT | 0.01 / 0.23 / 0.09 / -0.24 / -0.21 / -0.04 | -0.03 | 1 of 18 (3.04) |
| GFVLNSYGIS | VIYSDGRRTFYADSVK | GQVAGTFDS | 0.15 / 0.20 / 0.01 / 0.04 / 0.14 / 0.21 | 0.12 | 0 of 18 |
| GFDLNEYGIS | VIYSDGRRTFYGDSVK | GEAAGTFDS | 2.09 / 1.18 / 1.25 / 2.33 / 1.29 / 1.98 | 1.69 | 0 of 18 |
| GFSLNSYGIS | VIYSDGRRTFYADSVK | GNTAGTFDS | 0.25 / 0.19 / 0.12 / 0.44 / 0.33 / 0.48 | 0.30 | 0 of 18 |
| HFTLNSYGIS | VIYADGRRTFYGDSVK | GEAAGTFDS | 1.02 / 0.53 / 0.85 / 0.29 / -0.05 / 0.13 | 0.46 | 0 of 18 |
| GFELNSYGIS | VIYSDGRRTFYDDSVK | GQAAGTFDS | 0.94 / 0.89 / 1.38 / 1.67 / 0.97 / 1.69 | 1.26 | 1 of 18 (1.89) |
| GFELNSYGIS | VIYSDGRRTFYADDVK | GRTAGTFDS | -0.08 / 0.35 / 0.25 / 0.04 / -0.25 / 0.18 | 0.08 | 0 of 18 |
| SFSLNSYGIS | VIYSDGRRTFYADSVK | GKTAGTFDS | 0.68 / 0.66 / 0.12 / 0.67 / 0.15 / 0.61 | 0.48 | 1 of 18 (1.95) |
| GFSLNSYGIS | VIYSDGRRTFYGDSVK | GDVAGTFDS | 0.45 / -0.03 / -0.26 / -0.48 / -0.26 / 0.04 | -0.09 | 0 of 18 |
| GFTLNDYGIS | VIYSDGRRTFYGDSVK | GRHAGTFDT | 0.39 / 0.07 / 0.24 / 0.95 / 0.38 / 0.55 | 0.43 | 0 of 18 |
| GFDLNSYGIS | VIYADGRRTFYGDSVK | GKAAGTFDS | 0.31 / -0.15 / -0.67 / -0.56 / -0.36 / -0.22 | -0.28 | 0 of 18 |

Top 2 of the variants detected in all replicates, tightest first:

CDR-H1	CDR-H2	CDR-H3	log10 Kd, replicates	log10 Kd (nM), mean	empty controls
GFTLNSYGIS	VIYADGRRTFYGDSVK	GKAAGTFDV	0.02 / -0.57 / -0.28 / -0.48 / -0.63 / -0.35	-0.38	0 of 18
GFSLNEYGIS	VIYSDGRRTFYADSVK	GRAAGTFDT	-0.14 / -0.43 / -0.33 / -0.51 / -0.32 / -0.08	-0.30	0 of 18

Values of this round are not directly comparable with the first-round values of the same sequences. The authors' rule: three or more of the six replicates give a measured affinity, fewer mean a poor binder. The parent sequence was in this pool as ten entries: three were never detected, three once, and four in most replicates, with averages from 0.34 to 2.37. Three control strains display no target. For all heavy chain designs, 1% of the pairings with them gave a signal, with a median of 2.08 and one signal in twenty below 0.84, so weak values seen in few replicates may be background. Also given: how often the same scFv was detected with the empty control strains, with their mean in brackets.

From the AlphaSeq antibody data of Li et al. 2023 (doi:10.1038/s41467-023-39022-2), copy in the FLAb collection.